Like-named read-outs stand apart in the source and are kept apart here.
Tested on: LRRK2 G2019S mutant expressing neurons
Details: for suppression of the neurite length phenotype (neurite toxicity) of the G2019S LRRK2 allele: 10 μM, ratio of G2019S longest process length over wild-type longest process length, as percentage of vehicle (0.1% DMSO), primary rat cortical cultures; for block of LRRK2 toxicity: concentration not given

Structure (SMILES) | suppression of the neurite length phenotype (neurite toxicity) of the G2019S LRRK2 allele | suppression of the neurite length phenotype (neurite toxicity) of the G2019S LRRK2 allele (listed as ACBC) | block of LRRK2 toxicity
NC1(C(=O)O)CCC1 [1-aminocyclobutane carboxylic acid] | significantly suppress | significantly suppressed | effectively block LRRK2 toxicity
NC(CCCP(=O)(O)O)C(=O)O (centres unmarked) [AP-5, 2-amino-5-phosphonopentanoate] |  |  | effectively block LRRK2 toxicity
O=c1c(-c2cccc(Oc3ccccc3)c2)c(O)[nH]c2cc(Cl)ccc12 [L-701,324, 7-chloro-2-hydroxy-3-[3-(phenoxy)phenyl]-1H-quinolin-4-one] |  |  | effectively block LRRK2 toxicity
C[C@]12N[C@H](Cc3ccccc31)c1ccccc12 [MK-801] |  |  | effectively block LRRK2 toxicity
O=C1CC(c2ccccc2)Oc2ccccc21 (centres unmarked) [flavanone] |  |  | effectively block LRRK2 toxicity
Nc1ccccc1C(=O)CC(N)C(=O)O (centres unmarked) [kynurenine] |  |  | effectively block LRRK2 toxicity

Source: patent US20090004112A1, “METHODS FOR THE TREATMENT OF NEURODEGENERATIVE DISEASES USING NMDA RECEPTOR GLYCINE SITE ANTAGONISTS” (THE TRUSTEES OF COLUMBIA UNIVERSITY IN THE CITY OF NEW YORK, priority 2006, published 2009)
